# Data as given in paper PMC3577830, “Crystal Structure of Silkworm Bombyx mori JHBP in Complex With 2-Methyl-2,4-Pentanediol: Plasticity of JH-Binding Pocket and Ligand-Induced Conformational Change of the Second Cavity in JHBP” (PLoS ONE, 2013).
# Amino acid sequences for entries named in this document (tags omitted).
# UniProt Q9U556, entry or part of it: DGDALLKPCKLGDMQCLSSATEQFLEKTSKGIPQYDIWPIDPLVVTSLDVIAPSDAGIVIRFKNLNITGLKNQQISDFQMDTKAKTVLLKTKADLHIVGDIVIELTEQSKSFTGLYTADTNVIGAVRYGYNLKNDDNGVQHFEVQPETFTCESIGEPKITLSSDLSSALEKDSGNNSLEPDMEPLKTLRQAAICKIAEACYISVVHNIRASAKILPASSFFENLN
# Biological target: juvenile hormone-binding protein (JHBP) (Bombyx mori, UniProt Q9U556)
# Parameters: gene hJHBP
compound,measurement,value
"COC(=O)/C=C(\C)CC/C=C(\C)CC[C@H]1OC1(C)C [JH III, 3H-JH III]","radioligand binding (10 nM 3H-JH III, 800 nM JHBP, dextran-coated charcoal)",Binding of 3H-JH III to JHBP was measured in the absence and presence of MPD.
